Test results from paper PMC3704644, “UV-Induced Nuclear Import of XPA Is Mediated by Importin-α4 in An ATR-Dependent Manner” (PLoS ONE, 2013).

T1: importin-α4, endogenous (human (endogenous in H1299, A549, …, UniProt O00505 1-521))
T1 construct: importin-α4 (importin subunit alpha-4), human, endogenous in the cell lines used; detected and precipitated with a Genetex antibody; some sources swap the names α3 and α4 (KPNA4/KPNA3); also called Imp α4; source: endogenous, H1299, A549 or GM04429 (XPA-/-) lysate; also immunoprecipitated from H1299 lysate and washed with high salt (0.6 M NaCl)
T1 sequence (looked up): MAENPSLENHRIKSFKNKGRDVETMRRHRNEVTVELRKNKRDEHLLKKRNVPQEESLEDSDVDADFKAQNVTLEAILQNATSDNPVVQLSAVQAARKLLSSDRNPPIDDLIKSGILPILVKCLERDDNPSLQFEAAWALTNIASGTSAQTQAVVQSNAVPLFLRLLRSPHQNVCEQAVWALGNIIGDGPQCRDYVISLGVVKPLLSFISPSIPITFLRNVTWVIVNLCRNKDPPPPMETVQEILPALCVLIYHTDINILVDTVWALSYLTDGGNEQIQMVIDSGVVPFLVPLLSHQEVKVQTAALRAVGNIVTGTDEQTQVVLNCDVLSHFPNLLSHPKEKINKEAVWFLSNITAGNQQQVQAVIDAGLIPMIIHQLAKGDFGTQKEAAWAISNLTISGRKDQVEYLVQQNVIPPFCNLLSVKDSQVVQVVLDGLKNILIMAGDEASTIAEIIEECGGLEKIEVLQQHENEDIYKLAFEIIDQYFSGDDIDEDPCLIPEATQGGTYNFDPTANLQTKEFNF


Assays:
importin-α4, endogenous = target: T1, importin-α4, endogenous; test: co-IP; endogenous proteins; whole cell lysates of H1299 cells UV-C irradiated (20 J/m^2, 1/2 h recovery), or of A549 cells with control or ATR siRNA, mock or UV; NETN buffer (20 mM Tris-HCl pH 8.0, 100 mM NaCl, 1 mM EDTA, 0.5% NP-40), 4°C overnight; IP with importin-α4 or importin-α7 antibody, protein G-agarose, Western blot of XPA; conditions: partners not purified
importin-α7, endogenous = target: T2, importin-α7, endogenous (human (endogenous in H1299, GM04429), UniProt O60684); test: co-IP; 1.0 µg purified recombinant XPA mixed with 2 mg lysate of mock or UV-irradiated (20 J/m^2, 1/2 h recovery) GM04429 (XPA-/-) cells; IP with antibody to the C-terminal of XPA, 4°C overnight, protein G-agarose, NETN washes; Western blot of importins; conditions: one partner purified
T2 construct: importin-α7 (importin subunit alpha-7), human, endogenous in the cell lines used; detected and precipitated with a Genetex antibody; source: endogenous, H1299 or GM04429 (XPA-/-) lysate; also immunoprecipitated from H1299 lysate and washed with high salt (0.6 M NaCl)

Row | fold increase of the interaction after UV irradiation (against cells without UV) (importin-α4, endogenous) [fold] | binding result (importin-α7, endogenous) | Binder
1 | 2.8 | – | Xeroderma pigmentosum Group A (XPA) protein, endogenous (natural protein, human (endogenous in H1299 and A549), UniProt P23025 1-273, looked up, XPA (xeroderma pigmentosum group A protein), human, endogenous in H1299 and A549 cells; also called endogenous XPA; cellular XPA; source: endogenous, H1299 or A549 whole cell lysate) MAAADGALPEAAALEQPAELPASVRASIERKRQRALMLRQARLAARPYSATAAAATGGMANVKAAPKIIDTGGGFILEEEEEEEQKIGKVVHQPGPVMEFDYVICEECGKEFMDSYLMNHFDLPTCDNCRDADDKHKLITKTEAKQEYLLKDCDLEKREPPLKFIVKKNPHHSQWGDMKLYLKLQIVKRSLEVWGSQEALEEAKEVRQENREKMKQKKFDKKVKELRRAVRSSVWKRETIVHQHEYGPEENLEDDMYRKTCTMCGHELTYEKM
2 | – | binds | purified recombinant XPA protein (natural protein, human, UniProt P23025 1-273, looked up, XPA (xeroderma pigmentosum group A protein), human; also called purified XPA protein; source: purified recombinant protein) MAAADGALPEAAALEQPAELPASVRASIERKRQRALMLRQARLAARPYSATAAAATGGMANVKAAPKIIDTGGGFILEEEEEEEQKIGKVVHQPGPVMEFDYVICEECGKEFMDSYLMNHFDLPTCDNCRDADDKHKLITKTEAKQEYLLKDCDLEKREPPLKFIVKKNPHHSQWGDMKLYLKLQIVKRSLEVWGSQEALEEAKEVRQENREKMKQKKFDKKVKELRRAVRSSVWKRETIVHQHEYGPEENLEDDMYRKTCTMCGHELTYEKM
